Assay [1] has as its target Mu-type opioid receptor (Rattus norvegicus) (UniProt P33535). Briefly: Agonist activity at rat mu opioid receptor expressed in rat C6 cell membranes assessed as stimulation of [35S]GTPgammaS binding at 10 uM relative to DAMGO. (In general: GTPγS resists hydrolysis and so accumulates on activated G proteins.)
Assay [2] deals with Delta-type opioid receptor (Rattus norvegicus) (UniProt P33533). Briefly: Agonist activity at rat delta opioid receptor expressed in rat C6 cell membranes assessed as stimulation of [35S]GTPgammaS binding at 10 uM relative to DPDPE.

Sequences of proteins named here, by UniProt entry; tags and fusion partners are left off.
UniProt P33535, whole entry, looked up: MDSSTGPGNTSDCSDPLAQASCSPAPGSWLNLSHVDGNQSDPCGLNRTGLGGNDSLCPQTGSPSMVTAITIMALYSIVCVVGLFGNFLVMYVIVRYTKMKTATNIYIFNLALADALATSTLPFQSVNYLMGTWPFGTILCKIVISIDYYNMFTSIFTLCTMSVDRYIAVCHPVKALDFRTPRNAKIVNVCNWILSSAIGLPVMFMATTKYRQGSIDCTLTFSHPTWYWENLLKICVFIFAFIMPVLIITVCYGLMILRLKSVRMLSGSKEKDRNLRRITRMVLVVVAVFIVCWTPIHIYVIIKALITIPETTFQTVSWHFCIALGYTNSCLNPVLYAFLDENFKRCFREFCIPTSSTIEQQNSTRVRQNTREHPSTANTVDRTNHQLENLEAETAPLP
UniProt P33533, whole entry, looked up: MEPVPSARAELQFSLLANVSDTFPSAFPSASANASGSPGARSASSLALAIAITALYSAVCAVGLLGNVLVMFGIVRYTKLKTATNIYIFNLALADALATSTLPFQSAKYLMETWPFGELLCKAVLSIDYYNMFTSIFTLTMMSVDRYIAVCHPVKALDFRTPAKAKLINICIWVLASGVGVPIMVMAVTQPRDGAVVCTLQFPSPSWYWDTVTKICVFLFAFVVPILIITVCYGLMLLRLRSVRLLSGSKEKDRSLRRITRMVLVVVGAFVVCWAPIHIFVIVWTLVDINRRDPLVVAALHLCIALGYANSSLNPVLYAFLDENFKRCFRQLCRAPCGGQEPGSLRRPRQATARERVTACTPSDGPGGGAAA

As to `CO[C@@]12CC[C@@]3(C[C@@H]1[C@](C)(O)C(C)(C)C)[C@H]1Cc4ccc(O)c5c4[C@@]3(CCN1CC1CC1)[C@H]2O5`, the %max in assay [1] worked out at 20%; in assay [2], 7%.

The values above are taken from ChEMBL document CHEMBL3580663, “C7β-methyl analogues of the orvinols: the discovery of kappa opioid antagonists with nociceptin/orphanin FQ peptide (NOP) receptor partial agonism and low, or zero, efficacy at mu opioid receptors” (2015).
